The assay concerns the target Beta-secretase 1 (Homo sapiens, UniProt P56817). Description: BACE Assay: For each compound being tested, the BACE activity was monitored in a fluorescence quenching assay (FRET) using the ectodomain of BACE (aa 1-454) fused to a myc-his tag and secreted from HEK293/BACEect. cells into OptiMEM (Invitrogen) as enzyme source and a substrate peptide derived from the APP-Swedish mutation which possesses a Cy3-fluorophore at the N-terminus and a Cy5Q-quencher at.

For orientation: IC50 means the concentration needed to halve the response being measured. A low value points to greater potency in that assay.

Values joined by “and” are separate entries in the source; they are usually repeats but may differ in a detail not shown here. Equal values may be shown once.

In the case of `COC1CCC2(CC1)Cc1ccc(Br)cc1C21N=C(N)N(C)C1=O` (stereo unspecified), the IC50 was 3.3 nM and 4.9 nM.

The values are drawn from ChEMBL document CHEMBL5727175, “Inhibitors of beta-secretase” (2019).
